These are literature values, as cited in patent publication US6660287B1, “Prevention of spoilage of produce using acidified expanded amorphous aluminum silicate impregnated with chlorite” (Bio-Cide International, Inc., priority 1999, dated 2003).

This data set relates to mice. The settings on record: subchronic and acute oral administration, mice (Meier et al.).

Take sodium chlorite: the “chromosomal aberrations or increased numbers of micronuclei in the bone marrow” value is recorded as “failed to induce any chromosomal aberrations or increased numbers of micronuclei”.
